We go through one compound from BindingDB's records for doi:10.1016/j.ejphar.2003.10.004 (Yamanouchi Pharmaceutical, 2004).

Chains of the proteins cited; added tags and fusions are not shown. Lines headed by an entry give the natural chain unless they say otherwise; changes in a name come on top.
UniProt P28223, whole entry: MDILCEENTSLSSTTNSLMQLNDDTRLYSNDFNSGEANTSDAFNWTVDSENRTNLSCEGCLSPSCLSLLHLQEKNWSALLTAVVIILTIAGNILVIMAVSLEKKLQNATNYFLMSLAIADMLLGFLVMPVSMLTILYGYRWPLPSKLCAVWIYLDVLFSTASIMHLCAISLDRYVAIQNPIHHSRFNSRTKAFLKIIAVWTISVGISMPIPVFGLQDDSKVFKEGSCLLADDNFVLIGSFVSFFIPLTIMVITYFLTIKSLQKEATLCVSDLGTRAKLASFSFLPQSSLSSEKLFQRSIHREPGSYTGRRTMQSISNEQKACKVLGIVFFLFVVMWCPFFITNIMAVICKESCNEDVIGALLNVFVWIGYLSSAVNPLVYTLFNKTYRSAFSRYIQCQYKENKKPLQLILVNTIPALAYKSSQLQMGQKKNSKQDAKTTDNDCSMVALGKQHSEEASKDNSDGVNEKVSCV
UniProt P41595, whole entry: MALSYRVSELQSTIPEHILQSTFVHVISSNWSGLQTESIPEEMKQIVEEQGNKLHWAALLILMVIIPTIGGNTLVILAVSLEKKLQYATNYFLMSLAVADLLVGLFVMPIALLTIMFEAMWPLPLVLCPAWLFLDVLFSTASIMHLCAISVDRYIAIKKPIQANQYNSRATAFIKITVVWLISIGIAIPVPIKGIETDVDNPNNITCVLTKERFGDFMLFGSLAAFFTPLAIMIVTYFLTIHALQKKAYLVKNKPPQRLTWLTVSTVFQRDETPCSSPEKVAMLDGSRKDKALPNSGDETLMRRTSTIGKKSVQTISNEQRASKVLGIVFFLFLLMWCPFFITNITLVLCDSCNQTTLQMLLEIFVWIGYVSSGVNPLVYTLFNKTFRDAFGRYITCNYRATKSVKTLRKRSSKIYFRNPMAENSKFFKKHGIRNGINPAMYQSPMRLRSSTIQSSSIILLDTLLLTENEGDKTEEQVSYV
UniProt P28335: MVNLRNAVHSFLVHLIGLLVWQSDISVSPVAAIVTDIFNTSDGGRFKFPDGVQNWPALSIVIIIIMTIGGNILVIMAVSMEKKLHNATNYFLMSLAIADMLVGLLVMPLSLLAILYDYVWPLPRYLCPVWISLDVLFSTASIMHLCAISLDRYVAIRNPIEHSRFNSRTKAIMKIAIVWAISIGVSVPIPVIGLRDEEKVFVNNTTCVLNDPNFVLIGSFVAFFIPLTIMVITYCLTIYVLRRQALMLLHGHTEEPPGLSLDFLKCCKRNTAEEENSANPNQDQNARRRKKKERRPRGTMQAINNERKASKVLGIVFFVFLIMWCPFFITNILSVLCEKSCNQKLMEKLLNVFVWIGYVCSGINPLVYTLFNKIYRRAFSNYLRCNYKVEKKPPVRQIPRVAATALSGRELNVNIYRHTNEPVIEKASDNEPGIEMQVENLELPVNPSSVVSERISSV

Assay [1] has as its target 5-hydroxytryptamine receptor 2A (Homo sapiens, UniProt P28223).
Assay [2] has as its target 5-hydroxytryptamine receptor 2B (Homo sapiens, UniProt P41595).
Assay [3] addresses 5-hydroxytryptamine receptor 2C (Homo sapiens, UniProt P28335).

Each structure is given as a SMILES string.

For the compound `Clc1cccc(N2CCNCC2)c1` [mCPP], the values for the Ki in assay [1], in assay [2] and in assay [3] were 85 nM, 40 nM and 16 nM, respectively.

What is called Ki is the equilibrium dissociation constant of an inhibitor or competing ligand from its target.
